Results as given in PubChem BioAssay (Tox21).
Where “and” joins values, the source holds several entries; their conditions need not be identical. Equal entries are not always repeated. The entries are a selection whose mix differs from that of the whole data set. Results filed as inconclusive are left out. A structure can be active in one record and inactive in another. Calls of active or inactive are those of the source. Unless noted, the call rests on the fitted dose curve; in most records, active means well fitted curve in the direction sought with a large enough effect in the repeat runs; inconclusive means weak or mixed curves; inactive means no such curve, though single readings can be large; an effect the other way counts as inactive or inconclusive.

Chains of the proteins cited; added tags and fusions are not shown.
UniProt P04150, whole entry: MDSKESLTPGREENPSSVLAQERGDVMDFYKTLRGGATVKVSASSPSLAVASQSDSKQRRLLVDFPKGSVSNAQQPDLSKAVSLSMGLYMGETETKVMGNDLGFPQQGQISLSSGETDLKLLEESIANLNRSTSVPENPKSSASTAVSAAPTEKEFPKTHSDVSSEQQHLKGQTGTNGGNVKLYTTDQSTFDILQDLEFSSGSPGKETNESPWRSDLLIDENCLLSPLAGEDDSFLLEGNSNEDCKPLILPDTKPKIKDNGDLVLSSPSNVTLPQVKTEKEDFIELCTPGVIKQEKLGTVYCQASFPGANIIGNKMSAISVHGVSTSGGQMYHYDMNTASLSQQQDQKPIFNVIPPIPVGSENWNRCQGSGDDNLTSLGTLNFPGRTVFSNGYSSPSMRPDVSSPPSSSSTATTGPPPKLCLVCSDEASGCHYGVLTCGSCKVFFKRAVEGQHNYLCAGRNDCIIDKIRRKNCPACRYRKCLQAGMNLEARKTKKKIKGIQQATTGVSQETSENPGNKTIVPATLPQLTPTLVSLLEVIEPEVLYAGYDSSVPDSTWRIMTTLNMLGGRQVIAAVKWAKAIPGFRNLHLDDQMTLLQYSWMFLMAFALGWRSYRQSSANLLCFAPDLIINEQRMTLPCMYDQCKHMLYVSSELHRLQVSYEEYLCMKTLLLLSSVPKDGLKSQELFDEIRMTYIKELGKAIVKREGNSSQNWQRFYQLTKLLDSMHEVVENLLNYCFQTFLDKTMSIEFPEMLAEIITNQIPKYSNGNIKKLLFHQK

Assays:
[1] = qHTS assay to test for compound auto fluorescence at 535 nm (green) in HEK293 cell free culture (AID 720682); settings: cell-free medium, green autofluorescence 485/535 nm, stronger effect = higher value
Procedure, shortened: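 Measurement is a direct plate read of green fluorescence (485 nm in, 535 nm out) after compound addition to serum-supplemented DMEM lacking cells, with fluorescein used to express intensities.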

[2] = qHTS assay to test for compound auto fluorescence at 590 nm (red) in HEK293 cell free culture (AID 720683); settings: cell-free medium autofluorescence, Ex540/Em590 red
Procedure, shortened: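 Cell-free wells of DMEM with 10% FBS received compound, and intrinsic fluorescence was read at excitation/emission 540/590 nm. Values expressed as equivalence to Rose Bengal sodium.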

[3] = qHTS assay to test for compound auto fluorescence at 590 nm (red) in HepG2 cell free culture (AID 720684); settings: cell-free medium autofluorescence, red 540/590 nm
Procedure, shortened: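 Auto fluorescence equivalency versus Rose Bengal sodium, red channel Ex/Em 540/590 nm; compounds in cell-free MEM/10% FBS; DMSO vehicle control.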

[4] = qHTS assay to test for compound auto fluorescence at 460 nm (blue) in HepG2 cell free culture (AID 720685); settings: Cell-free culture medium, blue autofluorescence 405/460 nm
Procedure, shortened: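 Cell-free plates of MEM plus 10% FBS received 23 nL compound or DMSO vehicle; blue-channel (405/460 nm) intensity scored against triamterene as reference fluorophore.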

[5] = qHTS assay to test for compound auto fluorescence at 535 nm (green) in HepG2 cell free culture (AID 720686); settings: Cell-free medium, green autofluorescence 485/535 nm
[6] = biological target: Glucocorticoid receptor (Homo sapiens) (UniProt P04150); test: qHTS assay to identify small molecule agonists of the glucocorticoid receptor (GR) signaling pathway (AID 720691; active means well fitted activation curve with a large enough effect in the signal ratio in the repeat runs, not every such curve was filed as active; the % refers to the signal ratio); settings: GR-bla HeLa, beta-lactamase reporter ratio, 18 h
[7] = biological target: Glucocorticoid receptor (Homo sapiens) (UniProt P04150); test: qHTS assay to identify small molecule antagonists of the glucocorticoid receptor (GR) signaling pathway (AID 720692; active means well fitted inhibition curve with a large enough effect in the signal ratio in the repeat runs, not every such curve was filed as active; the % refers to the signal ratio); settings: GR-bla HeLa, beta-lactamase FRET ratio, dexamethasone-stimulated, 18 h; at 58.5 µM (top of the series)
[8] = qHTS assay to identify small molecule antagonists of the glucocorticoid receptor (GR) signaling pathway - cell viability counter screen (AID 720693); settings: GR-bla HeLa viability, CellTiter-Glo luminescence, 18 h, with 5 nM dexamethasone present; further: nearly all actives have a fitted effect of over 55% in size
[9] = qHTS assay for identifying genotoxic compounds that show differential cytotoxicity against isogenic chicken DT40 cell lines with known DNA damage response pathways - wild type cell line (AID 743012); settings: DT40 wild type chicken cells viability, CellTiter-Glo, 40 h; further: nearly all actives have a fitted effect of over 60% in size
Procedure, shortened: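 Luminescent ATP viability signal (CellTiter-Glo, 30 min RT) recorded after wild type DT40 cells were incubated with compounds for 40 h at 37 C/5% CO2.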

[10] = qHTS assay for identifying genotoxic compounds that show differential cytotoxicity against isogenic chicken DT40 cell lines with known DNA damage response pathways - Rev3 mutant cell line (AID 743014); settings: chicken DT40 Rev3-/- viability, CellTiter-Glo, 40 h; series mostly up to 68.4 µM; further: nearly all actives have a fitted effect of over 55% in size; further: potency means the concentration at half of the fitted maximal effect
On the % scale 0 is the no-effect control and ±100 the full control effect.

CCOP(=O)(CC)OCC
inactive: activity change ([1]; at 91.3 µM (top of the series)) 0.116% | fluorescence, % of fluorescent control ([2]; at 91.3 µM (top of the series)) -0.456% | fluorescence, % of Rose Bengal ([3]; at 91.3 µM (top of the series)) -0.144% | fluorescence, % of fluorescent control ([4]; at 91.3 µM (top of the series)) -0.0053% | fluorescence, % of fluorescein control ([5]; at 91.3 µM (top of the series)) -0.0184% | activation ([6]; at 62.4 µM (top of the series)) 0.943% | activity change, negative = inhibition [7] 6.36% | viability change, negative = cytotoxic ([8]; at 58.5 µM (top of the series)) 16.5% | activity change, negative = cytotoxicity ([9]; at 68.4 µM (top of the series)) -0.962% | Potency [10]

N=C(N)N[N+](=O)[O-]
inactive: activity change ([1]; at 95.7 µM (top of the series)) -0.0339% | fluorescence, % of fluorescent control ([2]; at 95.7 µM (top of the series)) 0.143% | fluorescence, % of Rose Bengal ([3]; at 95.7 µM (top of the series)) 0.0008% | fluorescence, % of fluorescent control ([4]; at 95.7 µM (top of the series)) -0.0927% | fluorescence, % of fluorescein control ([5]; at 95.7 µM (top of the series)) -0.0748% | activation ([6]; at 79.2 µM (top of the series)) -1.1% | viability change, negative = cytotoxic ([8]; at 78.9 µM (top of the series)) -11.7% | activity change, negative = cytotoxicity ([9]; at 95 µM (top of the series)) 1.16%

O=[N+]([O-])c1cccc([N+](=O)[O-])c1
inactive and 71.5 µM (active): Potency [10]
inactive: activity change ([1]; at 46 µM (top of the series)) -0.0328% | activity change ([1]; at 95.7 µM (top of the series)) -0.137% | fluorescence, % of fluorescent control ([2]; at 46 µM (top of the series)) -0.25% | fluorescence, % of fluorescent control ([2]; at 91.3 µM (top of the series)) -0.821% | fluorescence, % of Rose Bengal ([3]; at 46 µM (top of the series)) -0.117% | fluorescence, % of Rose Bengal ([3]; at 95.7 µM (top of the series)) 0.237% | fluorescence, % of fluorescent control ([4]; at 46 µM (top of the series)) 0.0091% | fluorescence, % of fluorescent control ([4]; at 95.7 µM (top of the series)) -0.236% | fluorescence, % of fluorescein control ([5]; at 46 µM (top of the series)) -0.0328% | fluorescence, % of fluorescein control ([5]; at 95.7 µM (top of the series)) -0.117% | activation ([6]; at 62.4 µM (top of the series)) -0.87% | activation ([6]; at 79.2 µM (top of the series)) -2.88% | activity change, negative = inhibition [7] 11.6% | viability change, negative = cytotoxic ([8]; at 58.5 µM (top of the series)) 1.45% | viability change, negative = cytotoxic ([8]; at 78.9 µM (top of the series)) -13% | activity change, negative = cytotoxicity ([9]; at 68.4 µM (top of the series)) -1%
